The text below walks through data of patent US12421217B2, “Pyrazine derivative or salt thereof, and use of same” (FUJIFILM Corporation, priority 2019, dated 2025).

Sequences of proteins named here, by UniProt entry; tags and fusion partners are left off. Residues count along the entry.
UniProt Q02127, 31-395 limits assumed: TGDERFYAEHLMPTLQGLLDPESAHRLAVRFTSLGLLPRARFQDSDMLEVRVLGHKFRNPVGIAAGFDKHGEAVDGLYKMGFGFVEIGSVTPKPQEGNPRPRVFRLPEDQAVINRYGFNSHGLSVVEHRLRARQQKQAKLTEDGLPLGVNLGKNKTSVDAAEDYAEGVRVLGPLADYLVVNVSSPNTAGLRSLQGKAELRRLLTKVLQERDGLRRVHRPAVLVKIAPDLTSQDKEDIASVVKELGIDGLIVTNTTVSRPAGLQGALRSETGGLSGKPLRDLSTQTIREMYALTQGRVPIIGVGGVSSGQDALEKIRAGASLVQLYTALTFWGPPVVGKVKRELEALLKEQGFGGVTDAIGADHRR

For one test, the target named is recombinant human DHODH (Homo sapiens, UniProt Q02127). The experiment in a line: Enzyme reaction inhibition test (DHODH enzyme assay, DCIP quenching). Particulars: read-out: Enzyme reaction inhibitory effect (IC50), DCIP absorbance 600 nm, 50 minutes. The method, then: The DHODH enzyme assay was carried out with reference to “Benjamin Bader, Wolfgang Knecht, Markus Fries, and Monika Loffler. Expression, Purification, and Characterization of Histidine-Tagged Rat and Human Flavoenzyme Dihydroorotate Dehydrogenase. Protein Expression and Purification, 1998, 13, 414-422.”
The DHODH activity was evaluated using an enzyme assay system that is coupled with an assay in which a blue coloring agent 2,6-dichlorophenol indophenol (DCIP, available from MP Biomedicals, LLC, MP150118) is quenched. […] The enzyme activity was assessed by measuring the decrease in DCIP absorbance (600 nm) for 50 minutes using an EnVision plate-reading spectrophotometer (available from PerkinElmer, Inc.). […]

In test [1] the test system is human myeloid leukemia cell line HL60. The experiment in a line: Cell growth test (Cell Titer Glo). Particulars: read-out: Cell growth inhibitory effect (GI50), HL60 cells, 3 days. The method, then: The cell growth test was carried out using the human myeloid leukemia cell line HL60 (available from ATCC, CRL-240). As a culture medium of HL60 cells, RPMI 1640 (available from FUJIFILM Wako Pure Chemical Corporation, 189-02025) supplemented with 10% fetal bovine serum (available from Thermo Fisher Scientific, Inc., 10437-028), and 1% penicillin-streptomycin (10,000 U/mL, available from Thermo Fisher Scientific, Inc., 15140-122) was used. HL60 cells were seeded on a 384-well plate (available from Corning Inc., 4588) at a cell density of 1×10^3 cells/20 μL/well. After culturing overnight, 5 μL of the test compound having a predetermined concentration was added, and 3 days later, 25 μL of Cell Titer Glo (registered trademark) Luminescent Cell Viability Assay (available from Promega Corporation, G7573) was added, and then the amount of luminescence was measured using an EnVision plate reader (available from PerkinElmer, Inc.). Since the amount of luminescence is proportional to the intracellular concentration of adenosine triphosphate (ATP), the amount of luminescence was used as an indicator of the number of viable cells. The growth inhibitory concentration for each test compound concentration was calculated by the following expression. […]

In general, IC50 refers to the point on the concentration scale where inhibition reaches its midpoint. Usually GI50 stands for the concentration at which growth is held to half of that of the control.

Regarding `O=C(O)c1nc(C2CC2)cnc1Nc1cccc(C2CCOCC2)c1OC(F)F`, at recombinant human DHODH, the IC50 is under 0.01 µM. Besides, the concentration for 50% growth inhibition (GI50) in test [1] was under 0.1 µM.
